# In ChEMBL document CHEMBL1833788, “Selective water-soluble gelatinase inhibitor prodrugs” (J Med Chem, 2011):
# Target: T1, Interstitial collagenase (Homo sapiens) (UniProt P03956)
# T1 sequence (whole entry): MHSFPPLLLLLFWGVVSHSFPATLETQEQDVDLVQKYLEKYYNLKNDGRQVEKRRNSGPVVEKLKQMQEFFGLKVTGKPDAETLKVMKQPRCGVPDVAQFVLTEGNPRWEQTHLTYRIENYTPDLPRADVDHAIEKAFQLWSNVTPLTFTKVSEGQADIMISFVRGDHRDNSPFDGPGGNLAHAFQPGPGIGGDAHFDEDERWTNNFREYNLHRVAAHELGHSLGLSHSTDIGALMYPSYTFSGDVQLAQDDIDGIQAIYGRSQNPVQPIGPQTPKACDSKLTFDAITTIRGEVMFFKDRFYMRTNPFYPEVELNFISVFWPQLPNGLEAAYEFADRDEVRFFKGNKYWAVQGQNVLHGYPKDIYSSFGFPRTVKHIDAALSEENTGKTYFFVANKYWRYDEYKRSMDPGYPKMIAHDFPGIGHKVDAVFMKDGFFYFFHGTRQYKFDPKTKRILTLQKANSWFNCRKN
# Details: 1 mM
structure (smiles),measurement,value
N=C(N)NCCC[C@H](N)C(=O)Nc1ccc(Oc2ccc(S(=O)(=O)CC3CS3)cc2)cc1 (stereo partly specified),inhibition,43%
